How the values were obtained:
Experiment in all cases: Octet, biotinylated pMHC on SA sensors, soluble TCR
HLA-A*02:16/… (human) = biological target: HLA-A*02:16/… (human)
HLA-A*02:09/… (human) = biological target: HLA-A*02:09/… (human)
HLA-A*02:12/… (human) = biological target: HLA-A*02:12/… (human)
HLA-A*02:03/… (human) = biological target: HLA-A*02:03/… (human)

Substance | Kd (HLA-A*02:09/… (human)) [µM] | Kd (HLA-A*02:12/… (human)) [µM] | other results
NY^c9 A0B1 (TCR) | – | – | Kd (HLA-A*02:16/… (human)): 5 µM
NY^c9 A0B2 (TCR) | 1.7 | 10 | –
NY^c9 A1B0 (TCR) | 5 | – | –
NY^c9 A2B0 (TCR) | 3 | – | –
NY^c9 A3B0 (TCR) | – | 3 | –
NY^c9 A5B0 (TCR) | 3 | – | Kd (HLA-A*02:03/… (human)): 9 µM

Reference: patent publication US20250082680A1
